From patent publication US20240207247A1, “METHODS FOR THE COMBINED ADMINISTRATION OF DEUTETRABENAZINE AND A CYP2D6 INHIBITOR” (Neurocrine Biosciences, Inc., priority 2021, published 2024)

The chains behind the UniProt entries cited, without tags or fusion partners.
UniProt Q05940, whole entry: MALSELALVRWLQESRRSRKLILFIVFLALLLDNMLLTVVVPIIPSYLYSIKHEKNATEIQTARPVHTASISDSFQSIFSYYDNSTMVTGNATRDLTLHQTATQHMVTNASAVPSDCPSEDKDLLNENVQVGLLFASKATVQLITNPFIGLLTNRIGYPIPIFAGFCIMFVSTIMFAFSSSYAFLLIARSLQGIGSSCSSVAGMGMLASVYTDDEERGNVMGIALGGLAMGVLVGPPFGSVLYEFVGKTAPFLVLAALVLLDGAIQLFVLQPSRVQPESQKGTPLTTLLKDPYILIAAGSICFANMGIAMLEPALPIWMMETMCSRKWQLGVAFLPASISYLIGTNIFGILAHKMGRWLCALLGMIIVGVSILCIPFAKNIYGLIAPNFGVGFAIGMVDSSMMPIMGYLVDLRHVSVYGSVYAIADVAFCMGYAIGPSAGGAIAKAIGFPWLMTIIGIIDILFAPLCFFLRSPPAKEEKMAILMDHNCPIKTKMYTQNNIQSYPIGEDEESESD

Target: VMAT2 (Homo sapiens, UniProt Q05940)
Experiment: VMAT2 competitive radioligand binding assay
Method: Assays were performed under conditions described in the accompanying “Methods” section of this report. Where presented, IC50 values were determined by a non-linear, least squares regression analysis using MathIQ™ (ID Business Solutions Ltd., UK). […] Where presented, the Hill coefficient (nH), defining the slope of the competitive binding curve, was calculated using MathIQ™.

Structure (SMILES)	VMAT2 inhibition in vitro (in words)
[2H]C([2H])([2H])Oc1cc2c(cc1OC([2H])([2H])[2H])[C@@H]1C[C@H](O)[C@@H](CC(C)C)CN1CC2 [[−]-α-DHTBZ, (−)-α-3-isobutyl-9,10-di(methoxy-d3)-1,3,4,6,7,11b-hexahydro-2H-pyrido[2,1-a]isoquinolin-2-ol]	inactive
[2H]C([2H])([2H])Oc1cc2c(cc1OC([2H])([2H])[2H])[C@@H]1C[C@@H](O)[C@@H](CC(C)C)CN1CC2 [[−]-β-DHTBZ, (−) -β-3-isobutyl-9,10-di(methoxy-d3)-1,3,4,6,7,11b-hexahydro-2H-pyrido[2,1-a]isoquinolin-2-ol]	inactive
